{"source": "patent US20050100561A1", "about": "“Use of topical compositions for the control of microbial diseases of the nail” (priority 2002, published 2005)", "test_system": "onychomycosis", "experiment": "Treatment of onychomycosis with topical copper silicate (cream or solution), patient trial", "procedure": "Subjects, not already receiving anti-fungal treatment, were assessed for clinical diagnosis of onychomycosis and photographs and nail clippings were taken. Those testing positive for onychomycosis were admitted to the trial.\nThe anti-fungal composition (cream or solution) was applied to the infected nail twice daily for the duration of the treatment.\nEstimates of the nail area involved were made during clinical visits and photographs were taken. Nail clippings were collected for KOH and dermatophyte culture. […] Results\nThe results presented hereunder are interim results of a 12 month study. Patients entered the trial and commenced their treatment at different dates. […] Patients were assessed at 0 (commencement). 6 weeks and 12 weeks."}
{"substance": "copper silicate", "values": [{"measurement": "Adverse reactions", "setting": "continued trial, 26 weeks treatment and 26 weeks post-treatment", "value": "No adverse reactions have been reported"}, {"measurement": "Adverse reactions", "setting": "interim results, up to 12 weeks of treatment", "value": "No adverse reactions were reported"}]}
